Biological target: Sodium-dependent dopamine transporter (Rattus norvegicus, UniProt P23977)
Experiment: Displacement of [3H]GBR-12935 from dopamine transporter of rat caudate-putamen
Assay type: tissue-based

Amino acid sequences for entries named in this document (tags omitted).
UniProt P23977, whole entry: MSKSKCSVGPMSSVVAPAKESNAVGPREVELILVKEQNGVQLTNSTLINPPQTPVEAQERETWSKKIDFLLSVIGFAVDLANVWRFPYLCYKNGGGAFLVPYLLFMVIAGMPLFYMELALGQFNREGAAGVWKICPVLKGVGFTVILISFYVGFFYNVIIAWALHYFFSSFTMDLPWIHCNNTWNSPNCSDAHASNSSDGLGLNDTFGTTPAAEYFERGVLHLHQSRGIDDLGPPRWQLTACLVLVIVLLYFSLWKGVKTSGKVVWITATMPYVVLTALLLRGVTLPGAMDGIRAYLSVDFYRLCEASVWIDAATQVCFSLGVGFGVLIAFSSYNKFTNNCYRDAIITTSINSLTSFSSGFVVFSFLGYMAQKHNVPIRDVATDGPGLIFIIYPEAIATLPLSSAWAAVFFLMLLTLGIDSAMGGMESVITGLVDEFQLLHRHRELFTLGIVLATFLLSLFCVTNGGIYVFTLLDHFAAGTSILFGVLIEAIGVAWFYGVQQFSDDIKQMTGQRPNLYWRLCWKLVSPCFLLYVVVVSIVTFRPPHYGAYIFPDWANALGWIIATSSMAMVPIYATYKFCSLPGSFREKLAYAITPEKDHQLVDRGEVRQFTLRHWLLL

Ki: 16.5 µM
SMILES: CN(C)CCCC1(c2ccc(F)cc2)OCc2cc(C#N)ccc21 (stereo unspecified) [CITALOPRAM]
